Test results as given in patent US5385831A, “Method for producing a mammalian G protein coupled glutamate receptor” (priority 1993, dated 1995).

Chains of the proteins cited; added tags and fusions are not shown. Residues count along the entry.
UniProt P23385, 19-1199: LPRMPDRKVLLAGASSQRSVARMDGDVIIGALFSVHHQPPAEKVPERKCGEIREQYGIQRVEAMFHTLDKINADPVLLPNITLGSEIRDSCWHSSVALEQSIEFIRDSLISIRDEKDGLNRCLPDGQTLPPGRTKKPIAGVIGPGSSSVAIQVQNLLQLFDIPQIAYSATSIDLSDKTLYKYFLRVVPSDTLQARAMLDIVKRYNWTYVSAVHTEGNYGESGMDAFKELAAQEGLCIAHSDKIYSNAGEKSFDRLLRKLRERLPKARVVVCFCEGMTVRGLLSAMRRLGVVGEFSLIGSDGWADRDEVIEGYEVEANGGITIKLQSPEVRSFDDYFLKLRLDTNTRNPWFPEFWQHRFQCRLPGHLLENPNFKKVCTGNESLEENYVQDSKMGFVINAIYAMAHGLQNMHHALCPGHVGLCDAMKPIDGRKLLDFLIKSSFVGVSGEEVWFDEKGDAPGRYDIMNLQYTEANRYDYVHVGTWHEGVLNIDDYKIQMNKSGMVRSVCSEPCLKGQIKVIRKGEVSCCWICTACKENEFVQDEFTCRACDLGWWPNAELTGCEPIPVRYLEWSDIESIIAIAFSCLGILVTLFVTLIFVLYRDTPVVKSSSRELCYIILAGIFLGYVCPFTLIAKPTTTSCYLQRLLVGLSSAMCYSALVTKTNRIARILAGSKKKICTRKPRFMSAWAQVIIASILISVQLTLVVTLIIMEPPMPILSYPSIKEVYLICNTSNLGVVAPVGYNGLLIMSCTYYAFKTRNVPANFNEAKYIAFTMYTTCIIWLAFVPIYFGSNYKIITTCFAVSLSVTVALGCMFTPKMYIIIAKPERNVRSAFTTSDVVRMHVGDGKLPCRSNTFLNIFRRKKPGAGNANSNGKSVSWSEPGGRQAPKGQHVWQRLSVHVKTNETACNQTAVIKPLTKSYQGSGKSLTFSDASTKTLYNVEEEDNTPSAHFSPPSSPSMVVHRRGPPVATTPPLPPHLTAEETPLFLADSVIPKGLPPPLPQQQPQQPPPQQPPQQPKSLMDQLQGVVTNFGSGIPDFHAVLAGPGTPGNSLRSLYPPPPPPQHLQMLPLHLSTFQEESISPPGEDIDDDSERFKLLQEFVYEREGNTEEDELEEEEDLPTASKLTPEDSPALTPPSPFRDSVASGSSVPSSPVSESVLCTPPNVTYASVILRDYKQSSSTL

Biological target: GluG R encoded by clone 45-A (Rattus norvegicus, UniProt P23385)
Assay: cell-based

N[C@@H](Cn1oc(=O)[nH]c1=O)C(=O)O [Quisqualic acid, quisqualic acid]
EC50: 681 nM
